# Yeast mating assay 1: variants of the scFv Ab-14

Antigen: PDVDLGDISGINAS, a 14-residue peptide of the SARS-CoV-2 spike HR2 region.

Ab-14 is the parent antibody, in scFv form: VH, then the linker GGGGSGGGGSGGGGS, then VL. The heavy chain is unchanged in all variants.
VH: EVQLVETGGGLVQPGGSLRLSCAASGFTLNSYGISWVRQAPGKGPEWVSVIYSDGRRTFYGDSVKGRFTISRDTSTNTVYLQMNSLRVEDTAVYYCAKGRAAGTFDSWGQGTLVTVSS
VL: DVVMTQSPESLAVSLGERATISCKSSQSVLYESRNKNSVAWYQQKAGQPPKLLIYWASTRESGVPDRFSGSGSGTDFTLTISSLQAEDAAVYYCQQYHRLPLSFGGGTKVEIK

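Library AAYL50 holds single substitutions and randomly drawn double and triple substitutions in the CDRs. In AlphaSeq, yeast of one mating type display the scFv and yeast of the other type display the target. After mating in shaken culture at 30 °C for 16 h, diploids were selected and their barcode pairs sequenced. Scores were corrected for input abundance and mapped to Kd with protein pairs of known affinity run in the same pool. Mating was done three times.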

Sequences are complete VL domains. Values are log10 of the apparent Kd in nM; lower means stronger binding. Replicates are averaged; those with no signal do not enter the mean. An entry "not detected" has no value in the source: the pair was not observed among the diploids in any replicate. This suggests poor binding but is not conclusive. For reference, the parent read 0.65 as the reference entry and 1.68 as a member of this library. Empty control strains, which show no peptide, gave a signal in 18% of pairings with library AAYL50; the median was 4.19 and 95% of these signals were weaker than 2.99. No background was subtracted. Also given: how often the same scFv was detected with the empty control strains.

| VL | mean log10 Kd (nM) | detected | signal with controls |
|---|---|---|---|
| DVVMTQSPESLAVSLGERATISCKSSQSVLYESRNKNSVKWYQQKAGQPPKLLIYWAVTRESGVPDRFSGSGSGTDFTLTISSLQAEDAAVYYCQQYGRLPLSFGGGTKVEIK | 4.86 | 2/3 | 3/9 |
| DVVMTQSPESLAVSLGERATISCKSSQSVLYESRNLNSVAWYQQKAGQPPKLLIYWAIPRESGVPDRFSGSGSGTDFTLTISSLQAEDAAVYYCQQYHRLPLSFGGGTKVEIK | 3.82 | 1/3 | 3/9 |
| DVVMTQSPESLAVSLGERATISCKSSQSVLYESWNKNSVAWYQQKAGQPPKLLIYWASTRESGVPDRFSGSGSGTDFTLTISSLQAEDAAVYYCQQYARLPLSFGGGTKVEIK | 1.17 | 3/3 | 5/9 |
| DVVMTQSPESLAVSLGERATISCKSSQSRLYESRNKNSVAWYQQKAGQPPKLLIYWASTDESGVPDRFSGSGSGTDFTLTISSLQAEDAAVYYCQQYHRLPLDFGGGTKVEIK | 2.54 | 3/3 | 5/9 |
| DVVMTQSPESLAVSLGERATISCDSSQSVLYESRNKNSVAWYQQKAGQPPKLLIYWASTRESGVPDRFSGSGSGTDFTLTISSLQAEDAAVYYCQQYHRLPLVFGGGTKVEIK | 0.90 | 3/3 | 1/9 |
| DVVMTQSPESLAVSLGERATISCKSSQSVLYEMRSKNSVAWYQQKAGQPPKLLIYPASTRESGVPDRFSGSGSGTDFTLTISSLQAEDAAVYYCQQYHRLPLSFGGGTKVEIK | not detected | 0/3 | 0/9 |
| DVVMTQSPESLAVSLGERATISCKSSQSVLYELRNKNCVTWYQQKAGQPPKLLIYWASTRESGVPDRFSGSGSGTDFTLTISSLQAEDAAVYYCQQYHRLPLSFGGGTKVEIK | 5.36 | 3/3 | 3/9 |
| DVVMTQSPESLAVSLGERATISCASSQSVLYESRNKKSVAWYQQKAGQPPKLLIYWASTRESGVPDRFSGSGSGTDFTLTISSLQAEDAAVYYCQQYHRLPGSFGGGTKVEIK | 3.00 | 3/3 | 1/9 |
| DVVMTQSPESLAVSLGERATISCKSSQSVHYESRNKNSVAWYQQKAGQPPKLLIYWAGTRESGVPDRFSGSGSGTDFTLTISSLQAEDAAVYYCQQYHRLPFSFGGGTKVEIK | 1.71 | 3/3 | 0/9 |
| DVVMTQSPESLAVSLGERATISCKSSQSVPYPSRNKNSVAWYQQKAGQPPKLLIYWASTRESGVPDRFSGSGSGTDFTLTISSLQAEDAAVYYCQQYHRLPFSFGGGTKVEIK | 1.79 | 3/3 | 3/9 |
| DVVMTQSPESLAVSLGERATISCKSSQHVLYESRNKNSVAWYQQKAGQPPKLLIYWASERESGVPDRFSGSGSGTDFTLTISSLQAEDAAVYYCQQYHRLPLSFGGGTKVEIK | 1.88 | 3/3 | 0/9 |

Further variants, results first:

| mean log10 Kd (nM) | detected | signal with controls | VL |
|---|---|---|---|
| not detected | 0/3 | 2/9 | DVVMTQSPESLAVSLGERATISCKSSQSVLYESRNKNSVRWYQQKAGQPPKLLIYWASTMESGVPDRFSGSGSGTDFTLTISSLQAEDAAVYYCQQTHRLPLSFGGGTKVEIK |
| 4.20 | 3/3 | 2/9 | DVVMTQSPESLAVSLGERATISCKSSQWVLYESQNKNSRAWYQQKAGQPPKLLIYWASTRESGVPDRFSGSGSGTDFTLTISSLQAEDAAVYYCQQYHRLPLSFGGGTKVEIK |
| not detected | 0/3 | 2/9 | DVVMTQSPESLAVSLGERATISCKSSWSVLYEGRNKNSVAWYQQKAGQPPKLLIYWWSTRESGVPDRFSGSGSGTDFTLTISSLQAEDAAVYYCQQYHRLPLSFGGGTKVEIK |
| 3.94 | 2/3 | 7/9 | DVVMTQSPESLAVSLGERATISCKSSQSVLYESRNKNSWAWYQQKAGQPPKLLIYWASTRPSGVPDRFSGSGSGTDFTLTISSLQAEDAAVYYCFQYHRLPLSFGGGTKVEIK |
| 1.02 | 3/3 | 3/9 | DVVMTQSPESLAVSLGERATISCVSSQSVLYESVNKNSVAWYQQKAGQPPKLLIYWASTRESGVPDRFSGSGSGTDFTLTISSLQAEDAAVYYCQQYYRLPLSFGGGTKVEIK |
| not detected | 0/3 | 0/9 | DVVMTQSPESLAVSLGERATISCKSWQWVLYESRNKNSVAWYQQKAGQPPKLLIYWASTRDSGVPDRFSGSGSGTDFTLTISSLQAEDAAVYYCQQYHRLPLSFGGGTKVEIK |
| 4.93 | 2/3 | 5/9 | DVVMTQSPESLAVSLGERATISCKSHQSVLYESRNKMSVAWYQQKAGQPPKLLIYWASTAESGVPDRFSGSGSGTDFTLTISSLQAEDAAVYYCQQYHRLPLSFGGGTKVEIK |
| not detected | 0/3 | 0/9 | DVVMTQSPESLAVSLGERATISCYSSQSVLYSSRNKNSLAWYQQKAGQPPKLLIYWASTRESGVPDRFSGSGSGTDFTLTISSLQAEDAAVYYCQQYHRLPLSFGGGTKVEIK |
| not detected | 0/3 | 0/9 | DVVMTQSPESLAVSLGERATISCKSSYSVLYESRNKNSVWWYQQKAGQPPKLLIYWASERESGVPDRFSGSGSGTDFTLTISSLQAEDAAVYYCQQYHRLPLSFGGGTKVEIK |
| not detected | 0/3 | 0/9 | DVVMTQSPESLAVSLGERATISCKQSQSVLYESRNKNVVAWYQQKAGQPPKLLIYWTSTRESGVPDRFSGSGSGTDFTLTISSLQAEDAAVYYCQQYHRLPLSFGGGTKVEIK |
| not detected | 0/3 | 0/9 | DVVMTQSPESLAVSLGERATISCKSSQSTLYESRNKNSVEWYQQKAGQPPKLLIYWASTRESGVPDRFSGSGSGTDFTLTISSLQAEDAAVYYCQQYHLLPLSFGGGTKVEIK |

For reference, 2 entries of the list once more:

| VL | mean log10 Kd (nM) | detected | signal with controls |
|---|---|---|---|
| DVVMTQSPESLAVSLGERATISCKSSQSVHYESRNKNSVAWYQQKAGQPPKLLIYWAGTRESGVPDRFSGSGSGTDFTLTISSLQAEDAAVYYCQQYHRLPFSFGGGTKVEIK | 1.71 | 3/3 | 0/9 |
| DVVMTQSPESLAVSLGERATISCKSHQSVLYESRNKMSVAWYQQKAGQPPKLLIYWASTAESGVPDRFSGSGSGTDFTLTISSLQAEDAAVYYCQQYHRLPLSFGGGTKVEIK | 4.93 | 2/3 | 5/9 |

Values reported by Engelhart et al. 2022, doi:10.1038/s41597-022-01779-4 (FLAb copy).